# Assay: Toxicity in man, intramuscular injection
# Type: in vivo
# Conditions: dose of 200 to 400 mg
# From the text: The derivatives according to the invention have a very weak toxicity both for animals and man.
substance,measurement,value
"Example 1: IFN-α (Hoffmann-Laroche) inactivated with 33 mM formaldehyde, 3 days 37° C., lysine added, dialyzed, lyophilized in doses",toxic effect,did not produce any detectable toxic effect
